Assay: Average plasma concentration of spinosyns in cats' blood (Example 1)
Assay type: in vivo
Details: feline, typical single monthly dose
Procedure: Each cat in test groups 2-4 is to receive by mouth a liquid formulation of spinosyn, preferably spinosad.
Using the same study method as described above, blood is to be drawn at 72, 120, 168, 336, 504, 720 and 888 hours after the initial dose of spinosyn is administered. The average concentration of spinosyn in the blood for different dosage levels can then be determined.

spinosad
plasma concentration of spinosad (12 hours after the dose): ~6107 ng/mL
plasma concentration of spinosad (one hour after the dose): about 878 ng/ml

Reference: patent publication US20240138442A1, “ORAL FELINE FEED AND METHODS FOR CONTROLLING FLEA INFESTATIONS IN A FELINE” (In the Bowl Animal Health, Inc., priority 2021, published 2024)
